According to patent publication US10300036B2, “Compositions and methods for treating and preventing lung injury” (ARIZONA BOARD OF REGENTS on behalf of THE UNIVERSITY OF …, priority 2015, dated 2019):

System: NRF2 transcriptional activity
Assay: mGst-ARE firefly/Renilla luciferase reporter gene assay in H1299 cells (KEAP1-WT or KEAP1-C151S)
Conditions: H1299, 16 h; SF 5 μM, tBHQ 50 μM, As(III) 5 μM, bixin 40 μM

Substance: sodium arsenite
- NRF2 transcriptional activity, KEAP1-C151S cells: still able to induce
